scFv variants of Ab-91 (heavy chain) against a SARS-CoV-2 spike peptide

Source: Engelhart et al. 2022 (doi:10.1038/s41597-022-01779-4), MIT Lincoln Laboratory and A-Alpha Bio; data file from the FLAb repository.

Target peptide (SARS-CoV-2 spike, HR2 region): PDVDLGDISGINAS

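The starting antibody came from a phage panning campaign against this peptide. Variants in AAYL51 differ from the parent at up to three CDR positions; double and triple changes were sampled at random. The scFvs were displayed on barcoded MATa yeast, the peptide on MATalpha yeast. Mating (16 h, 30 °C) was followed by selection of diploids and sequencing of their barcodes. Each replicate has its own calibration line, from reference interactions of the BCL2 family. Each pool was mated in three replicate cultures.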

Parent scFv Ab-91: VL joined to VH by a (GGGGS)3 linker. Changes lie in the heavy chain CDRs alone.
VL: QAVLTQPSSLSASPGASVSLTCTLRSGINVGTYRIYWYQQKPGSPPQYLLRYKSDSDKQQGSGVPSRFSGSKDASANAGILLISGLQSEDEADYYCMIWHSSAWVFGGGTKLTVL
VH: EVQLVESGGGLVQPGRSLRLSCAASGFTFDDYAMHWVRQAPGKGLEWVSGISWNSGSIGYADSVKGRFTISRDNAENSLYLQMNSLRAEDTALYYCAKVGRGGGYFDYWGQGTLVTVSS

Variants are written as CDR1, CDR2 and CDR3 of the heavy chain (limits as in the source). Parent: GFTFDDYAMH, GISWNSGSIGYADSVK, VGRGGGYFDY.
All variants listed here change K65 of the VH, counted from its first residue.
Numbers give log10(Kd / nM), so 0 is 1 nM and 3 is 1 µM. Smaller is tighter.
"nd" marks a missing value. The strain was present, yet no cells mated with the target were sequenced in that replicate, which points to weak or no binding.
Nonspecific signal, from three strains lacking the peptide, appeared in 21% of pairings of library AAYL51, centred on 4.54 (5% of these signals below 3.26); values are not corrected for it.

For GFTFDDYAPH / GISWNSGSIGYADSVN / VGRGGIYFDY, the assay gave 4.46, nd, nd.
For GFTFDDYAKH / GISWNSGSIGYADSVG / VGRGGGYFCY, the assay gave 4.63, 6.72, 5.18.
For DFQFDDYAMH / GISWNSGSIGYADSVC / VGRGGGYFDY, the assay gave 3.74, nd, nd.
For GFTFDDYAMH / GISWNSGSIGYADSMC / VGRGGGYFQY, the assay gave 5.73, 5.77, nd.
For GFTFADYAMH / GISWNSGSIGSADSVH / VGRGGGYFDY, the assay gave nd, 5.11, nd.
For GFTFIDYAMH / GISWNSGRIGYADSVD / VGRGGGYFDY, the assay gave nd, 4.44, nd.
For GFTFDDYATH / GISWLSGSIGYADSVH / VGRGGGYFDY, the assay gave nd, 5.79, 5.31.
For GLTFDDYAGH / GISWNSGSIGYADSVT / VGRGGGYFDY, the assay gave 5.20, 6.61, 5.28.
For GFTFDDYAMH / GISWNSGSIGYADSVI / VGRGGGYFPY, the assay gave 5.07, 4.20, nd.
For GFTFDDLAMH / GISWNSGSIGYADSVE / VGRGGGTFDY, the assay gave nd, nd, nd.
For GFTFDDYAMH / GISWNSGSIGRAMSVH / VGRGGGYFDY, the assay gave nd, nd, nd.
For GFTFDDYAMH / GISWNSESIGYADSVV / VGRGGGMFDY, the assay gave 1.40, 1.55, 1.81.
For GFTFDDYAMH / GISWNSGSIGYADSVW / VGRGGGIFDY, the assay gave 4.64, 2.94, nd.
For GFTFDDYAMH / GISWNSGSIGYADSVG / VGRGGGYRLY, the assay gave 1.20, 1.35, 0.72.
For GFTFDDYAMH / GISWYSGSIGYADSVE / VHRGGGYFDY, the assay gave nd, nd, nd.
For GFTFDWYAMH / GISWNSGSIGVADSVD / VGRGGGYFDY, the assay gave nd, nd, nd.
For GFTFDDYGMH / GISWNSGSIGYADSVG / VGRGGGVFDY, the assay gave 2.29, 3.92, nd.
For GFTFDDPAMH / GISWNMGSIGYADSVS / VGRGGGYFDY, the assay gave nd, 4.90, 4.25.
For GFTFDDYAMH / GISWNSGSQGYADSVR / AGRGGGYFDY, the assay gave 3.97, nd, nd.
For GFTFDDIAMH / GISWNQGSIGYADSVD / VGRGGGYFDY, the assay gave nd, 6.29, nd.
For GFTFDDYAMH / GITWNSTSIGYADSVA / VGRGGGYFDY, the assay gave nd, nd, nd.
For GFTFDDYAMH / GISWNSGSIGYADSVM / VGRGGQYDDY, the assay gave nd, nd, nd.
For GFTFDDYAMH / GISWNSGSIGYLISVV / VGRGGGYFDY, the assay gave nd, 5.02, nd.
For GFTFDDYAMH / GISRNSGSIGYADSVP / VGRDGGYFDY, the assay gave nd, nd, nd.
For GFTFDDYCMH / GISWNSGSIDYADSVD / VGRGGGYFDY, the assay gave nd, nd, nd.
For GFTFDDYAMH / GISSCSGSIGYADSVS / VGRGGGYFDY, the assay gave 1.67, 1.97, 1.63.
For YFTFDDYAGH / GISWNSGSIGYADSVH / VGRGGGYFDY, the assay gave nd, nd, nd.
For GFTFDDYAMH / GISWNSCSIGYADSVI / VGRGGGYFDY, the assay gave 1.44, 1.65, 1.03.
For GFTFDDYAMH / GISWNSGSIGYADSRF / VGRGYGYFDY, the assay gave 3.31, nd, nd.
For GFTFDDYAMH / GDSWNSGSIGYADSVF / VGRGGGYFDY, the assay gave nd, 5.81, nd.
For GFTFDDYAKH / GIRWNSGSIGYADSVH / VGRGGGYFDY, the assay gave nd, 5.64, nd.
For GFTFDDYAMH / GISENPGSIGYADSVE / VGRGGGYFDY, the assay gave nd, 4.84, nd.
For GFTFWDYAMH / GISWNAGSIGYADSVP / VGRGGGYFDY, the assay gave nd, nd, nd.
For GFTFDDYAMH / GISWNSGSIGYADSVL / VGRGGGYFDY, the assay gave 4.37, 4.63, 4.92.
For GFTFDDYAMH / GISWNFGSIGYADSVM / VGRGGGYFDY, the assay gave 4.05, 3.90, 5.54.
For GCTFDDYAMH / GISWNSGSIGYADSID / VGRGGGYFDY, the assay gave 4.23, nd, nd.
For GFTFDDYAMH / GIEWNSGSIGYADMVM / VGRGGGYFDY, the assay gave nd, nd, nd.
For GFTFDDYAMH / GISWNSGSIGYADSVA / VGRGGQYFDY, the assay gave nd, nd, nd.
For GFTFDDYAMH / GISWNSGSDGYADSVP / VGRGGGYRDY, the assay gave nd, nd, nd.

Repeated from above, the 6 best binders with a signal in all replicates:

CDR-H1,CDR-H2,CDR-H3,"replicates, log10 nM"
GFTFDDYAMH,GISWNSGSIGYADSVG,VGRGGGYRLY,"1.20, 1.35, 0.72"
GFTFDDYAMH,GISWNSCSIGYADSVI,VGRGGGYFDY,"1.44, 1.65, 1.03"
GFTFDDYAMH,GISWNSESIGYADSVV,VGRGGGMFDY,"1.40, 1.55, 1.81"
GFTFDDYAMH,GISSCSGSIGYADSVS,VGRGGGYFDY,"1.67, 1.97, 1.63"
GFTFDDYAMH,GISWNFGSIGYADSVM,VGRGGGYFDY,"4.05, 3.90, 5.54"
GFTFDDYAMH,GISWNSGSIGYADSVL,VGRGGGYFDY,"4.37, 4.63, 4.92"